Measured values taken from article PMC5891061, “Electrophysiological mechanisms of vandetanib-induced cardiotoxicity: Comparison of action potentials in rabbit Purkinje fibers and pluripotent stem cell-derived cardiomyocytes” (PLoS ONE, 2018).

Amino acid sequences for entries named in this document (tags omitted). A change or cut given only in a name is not applied to a line headed by its entry.
UniProt Q12809: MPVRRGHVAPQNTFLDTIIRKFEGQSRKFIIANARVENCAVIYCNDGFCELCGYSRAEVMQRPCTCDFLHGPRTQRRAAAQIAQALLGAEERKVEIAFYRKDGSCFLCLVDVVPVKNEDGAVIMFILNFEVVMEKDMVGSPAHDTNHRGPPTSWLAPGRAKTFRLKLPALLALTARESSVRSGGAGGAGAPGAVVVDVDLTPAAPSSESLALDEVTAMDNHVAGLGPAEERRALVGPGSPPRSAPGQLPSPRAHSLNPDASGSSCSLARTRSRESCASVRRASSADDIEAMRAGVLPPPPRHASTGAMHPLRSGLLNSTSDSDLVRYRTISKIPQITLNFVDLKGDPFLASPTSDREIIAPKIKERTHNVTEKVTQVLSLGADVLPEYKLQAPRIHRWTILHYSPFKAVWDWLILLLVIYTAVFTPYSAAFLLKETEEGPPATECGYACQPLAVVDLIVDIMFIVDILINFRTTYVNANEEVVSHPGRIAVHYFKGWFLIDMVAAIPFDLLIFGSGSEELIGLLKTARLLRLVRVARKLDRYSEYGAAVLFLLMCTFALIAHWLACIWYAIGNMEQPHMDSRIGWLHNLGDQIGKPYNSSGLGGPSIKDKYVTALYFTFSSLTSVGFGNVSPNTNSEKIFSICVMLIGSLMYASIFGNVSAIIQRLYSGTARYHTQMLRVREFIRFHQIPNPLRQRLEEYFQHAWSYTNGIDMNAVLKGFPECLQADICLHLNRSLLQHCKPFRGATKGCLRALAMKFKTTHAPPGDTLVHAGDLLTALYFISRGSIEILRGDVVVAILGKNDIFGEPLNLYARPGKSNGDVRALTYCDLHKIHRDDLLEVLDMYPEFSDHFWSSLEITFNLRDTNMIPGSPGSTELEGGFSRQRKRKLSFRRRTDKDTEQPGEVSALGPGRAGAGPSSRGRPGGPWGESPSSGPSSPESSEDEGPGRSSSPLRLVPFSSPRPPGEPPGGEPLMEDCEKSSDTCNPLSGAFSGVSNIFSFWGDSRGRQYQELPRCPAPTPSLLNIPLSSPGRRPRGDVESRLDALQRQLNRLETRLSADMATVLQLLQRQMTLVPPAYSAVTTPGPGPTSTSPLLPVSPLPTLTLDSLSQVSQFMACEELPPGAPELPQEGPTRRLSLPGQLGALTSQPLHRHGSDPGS

Molecular target: hERG (IKr) (Homo sapiens, UniProt Q12809)
Assay: Whole-cell patch clamp, IhERG tail current in transfected HEK293 cells
Settings: 1 μM

SMILES: COc1cc2c(Nc3ccc(Br)cc3F)ncnc2cc1OCC1CCN(C)CC1 [Vandetanib]
- IhERG current: 744.0 ± 125.9
